# Source: BindingDB's records for doi:10.1016/j.bmc.2010.11.049 (Bryn Mawr College, 2011)
# Experiment: Inhibition of HIV1 YU2 gp120 binding to CD4 expressing Cf2Th-CD4/CCR5 cells assessed as inhibition of viral infection after 48 hrs
row,Structure (SMILES),IC50
1,O=C(NCC1CCN(C2CC2)C1)C(=O)Nc1ccc(Cl)c(F)c1 (stereo not given) [N1-(4-chloro-3-fluorophenyl)-N2-((1-cyclopropylpyrrolidin-3-yl)methyl)oxalamide],33.5 µM
2,O=C(Nc1ccc(Cl)c(F)c1)C(=O)NC1CCN(C2CCCCC2)C1 (stereo not given) [N1-(4-chloro-3-fluorophenyl)-N2-(1-cyclohexylpyrrolidin-3-yl)oxalamide],57.1 µM
3,CCN1CCC(CNC(=O)C(=O)Nc2ccc(Cl)c(F)c2)CC1 [N1-(4-chloro-3-fluorophenyl)-N2-((1-ethylpiperidin-4-yl)methyl)oxalamide],> 100 µM
4,"CC1(C)CC(NC(=O)C(=O)Nc2ccc(Cl)cc2)CC(C)(C)N1 [N-(4-chlorophenyl)-N'-(2,2,6,6-tetramethylpiperidin-4-yl)-oxalamide]",73.7 µM
5,"CC1(C)CC(NC(=O)C(=O)Nc2ccc(Cl)c(F)c2)CC(C)(C)[N+]1(C)[O-] (stereo not given) [4-(2-(4-chloro-3-fluorophenylamino)-2-oxoacetamido)-1,2,2,6,6-pentamethylpiperidine 1-oxide]",> 100 µM
